Ab-14 light chain CDR variants: yeast mating affinities

Binding partner: SARS-CoV-2 spike HR2 peptide, sequence PDVDLGDISGINAS.

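The starting antibody came from a phage panning campaign against this peptide. Designed CDR sequences, proposed from the first random library and measured here. Their group label is 14L_GP_Gibbs (GP: Gaussian process model; Gibbs: Gibbs sampling; a sequence that several methods proposed may carry one label only). Affinity was read by AlphaSeq, a pooled yeast mating assay with surface-displayed partners. Mating (16 h, 30 °C) was followed by selection of diploids and sequencing of their barcodes. Scores were corrected for input abundance and mapped to Kd with protein pairs of known affinity run in the same pool. There are six technical replicates.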

Parent: Ab-14, a human scFv built as VH, a (GGGGS)3 linker, VL. Only the CDRs of the light chain vary.
VH: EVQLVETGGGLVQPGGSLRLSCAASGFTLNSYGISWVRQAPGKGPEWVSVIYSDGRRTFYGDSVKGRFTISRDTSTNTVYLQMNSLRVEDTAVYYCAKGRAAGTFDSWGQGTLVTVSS
VL: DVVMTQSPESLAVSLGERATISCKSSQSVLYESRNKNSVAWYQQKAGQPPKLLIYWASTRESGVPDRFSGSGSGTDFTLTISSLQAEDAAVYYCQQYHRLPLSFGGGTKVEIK

The parent's light chain CDRs are KSSQSVLYESRNKNSVA, WASTRES, QQYHRLPLS; each variant's own CDRs replace them letter for letter. Affinities are written as log10 Kd with Kd in nM; a lower number is a better binder. An entry "nd" has no value in the source: the pair was not observed among the diploids in that replicate. This suggests poor binding but is not conclusive.

| CDR-L1 | CDR-L2 | CDR-L3 | log10 Kd (nM) by replicate | empty controls |
|---|---|---|---|---|
| KVEQGVDDLSRNDNSVA | WASTRES | QQYHRLPLS | 1.20 / 1.20 / 0.85 / 1.19 / 1.25 / 1.06 | 3/18 (2.65) |
| KLSGEMLYESRNKNSVA | HASLRES | QDYHRLPLQ | 0.44 / 0.10 / 0.52 / 0.15 / 0.32 / 0.49 | 0/18 |
| KLSQSTWYESRMKNSVA | NASLREQ | QQYHRLPLS | 0.20 / 0.18 / -0.05 / 0.10 / 0.08 / 0.38 | 0/18 |
| KMSQSDLMEMRNANSVA | NASTREM | QQYHRLPLS | 0.21 / 0.13 / -0.17 / -0.08 / 0.15 / 0.00 | 1/18 (2.86) |
| KLEQLYDYGSRNKNSVA | QASLRES | QQYHRLPLS | 0.25 / -0.06 / 0.03 / -0.03 / 0.02 / 0.42 | 0/18 |
| KFQQAWLYESRNKNSVA | NASCRES | QQYHRLPLS | 0.28 / 0.13 / 0.07 / 0.08 / 0.07 / 0.28 | 0/18 |
| KVYQSNGYESRNDNNVA | NASLRES | QQYHRLPLS | 0.14 / 0.00 / 0.02 / -0.14 / 0.16 / 0.27 | 2/18 (3.61) |
| KFSQQVLYESRAMNSVA | NASQRLS | QQYHRLPLS | 0.01 / -0.08 / -0.16 / -0.14 / -0.20 / -0.04 | 1/18 (4.57) |
| KVYQSSLYESRNDNNVA | NASYRES | QQYHRLPLS | 0.16 / -0.02 / 0.02 / -0.11 / 0.12 / 0.13 | 2/18 (2.93) |
| KVVQSVNGLQRAKNSVA | QASTRES | QQYHRLPLS | 0.61 / 0.63 / 0.38 / 0.46 / 0.49 / 0.71 | 2/18 (2.81) |
| KFSQSEDYESRNKWSVA | NASTRMS | QQYHRLPLS | 0.26 / 0.07 / -0.01 / -0.10 / 0.00 / 0.23 | 0/18 |
| KVSQSVCYEDRVKNSVA | NASDRMS | QQYHRLPLS | 0.89 / 0.47 / 0.42 / 0.10 / 0.73 / 0.84 | 1/18 (3.04) |
| KVEQSVMLESRWKNSVA | NASTRCS | QQYHRLPLS | 0.68 / 0.63 / 0.45 / 0.44 / 1.29 / 0.87 | 0/18 |
| KQSQSFLYESRNSNSVA | NASQREE | QQYHRLPLM | 0.85 / 0.63 / 0.64 / 0.56 / 0.45 / 0.72 | 2/18 (2.67) |
| KFSQSYLYEDRAKNSVA | NASTRLW | QQYHRLPLS | 0.33 / 0.34 / -0.03 / -0.06 / 0.20 / 0.27 | 2/18 (2.61) |
| KLDFSALEESRNPNSVA | SASTRES | QDYHRLPLS | 0.08 / -0.04 / -0.24 / -0.19 / -0.25 / 0.14 | 1/18 (3.43) |
| KLVGSWLYESRNKNAVA | RASQRCS | QQYHRLPLS | 1.17 / 0.87 / 1.25 / 0.49 / 1.23 / 1.79 | 0/18 |
| KMSQSWLYESQNSNSVA | HASQRMS | QQYHRLPLS | 0.06 / 0.02 / 0.00 / -0.26 / -0.11 / 0.14 | 0/18 |
| KFQQSMGYESRNKNSVA | EASTRSS | QQYHRLPLS | -0.03 / -0.10 / -0.29 / -0.40 / -0.20 / -0.21 | 1/18 (3.26) |
| KLEGSKEYESRWKNSVA | HASVREV | QQYHRLPLS | 1.52 / 0.36 / 0.79 / 0.89 / 0.08 / 0.25 | 0/18 |
| KLMQSPEYESRNKNSVA | NASQREE | QQYHRLPLS | 0.59 / 0.67 / 0.54 / 0.54 / 0.52 / 0.63 | 1/18 (3.38) |
| KARQSNLYESRNQNSVA | NASQRLD | QQYHRLPLS | 0.73 / 0.29 / 0.42 / 0.19 / 0.34 / 0.76 | 1/18 (2.87) |
| KVMQSELYEQRNANNVA | NGSTRES | QQYHRLPLS | -0.20 / -0.30 / -0.43 / -0.44 / -0.29 / -0.30 | 0/18 |
| KLEQGVDMESRNKNSVA | NASMRED | QQYHRLPLS | 0.00 / 0.07 / 0.02 / 0.46 / 0.46 / 1.27 | 1/18 (2.16) |
| KMSMSVLYEDRHGNSVA | NASTRFM | QQYHRLPLS | 0.99 / 1.01 / 1.00 / 0.89 / 0.75 / 0.97 | 2/18 (2.18) |
| KLQQSWEYESRNSNSVA | QASTRMA | QQYHRLPLS | 0.41 / 0.31 / 0.09 / 0.27 / 0.45 / 0.51 | 1/18 (2.18) |
| ILYQSQLYESRNKNSVA | QASKREM | QQYHRLPLS | 0.59 / 0.21 / 0.46 / 0.32 / 0.17 / 1.10 | 1/18 (2.26) |
| KQSQSFLYESRNSNSVA | DASQREQ | QDYHRLPLM | 2.17 / 1.01 / 0.18 / 1.21 / 0.69 / 0.72 | 0/18 |
| KLMQEDEYQSRNPNSVA | HASERES | QQYHRLPLS | -0.94 / -0.96 / -1.32 / -1.23 / -0.82 / -0.76 | 0/18 |
| KFSQQVLYESRQKNSVA | NASQRFE | QQYHRLPLS | -0.01 / -0.05 / -0.26 / -0.12 / 0.08 / 0.05 | 0/18 |
| KLSQSWLYLSRNSNSVA | NASQRED | QQYHRLPLS | -0.08 / -0.16 / -0.06 / -0.26 / -0.15 / -0.06 | 1/18 (4.74) |
| KLQMQAEMESRNKNSVA | QANTRES | QQYHRLPLS | -0.12 / -0.23 / -0.59 / -0.45 / -0.45 / -0.37 | 0/18 |
| KLSQQVLYESRNKNSVA | NASQRLS | QCYHRLPLS | 0.90 / 0.47 / 0.54 / 0.32 / 0.72 / 0.55 | 0/18 |
| KVSQSEEYESRWKNSVA | NASYRES | QQYHRLPLS | 0.23 / 0.46 / 0.14 / 0.01 / 0.26 / 0.36 | 2/18 (3.22) |
| KLSQSVLYQMRQKNSVA | QASTRMS | QQYHRLPLS | 0.42 / 0.18 / 0.07 / 0.07 / 0.27 / 0.29 | 0/18 |
| HLEQSELYESRMKNSVA | NASTRMS | QQYHRLPLS | 0.24 / 0.30 / 0.12 / 0.19 / 0.25 / 0.65 | 2/18 (2.84) |
| KWMQSVDQESRNKNSVA | HASTRCQ | QQYHRLPLS | 0.88 / 0.65 / 0.58 / 0.37 / 0.62 / 0.56 | 1/18 (2.78) |
| KLSQWQLYESRNKNNVA | SASTREM | QQYHRLPLS | 0.01 / -0.19 / -0.06 / -0.37 / -0.21 / -0.09 | 0/18 |
| KVPGEQGYESRNKNSVA | EASTRES | QQYHRLPLS | 0.12 / 0.10 / -0.05 / 0.21 / 0.19 / 0.47 | 1/18 (1.73) |
| KWSWSWLLESRVWNSVA | NASLRES | QQYHRLPLS | nd / nd / nd / nd / nd / nd | 0/18 |
| KLSGSMLYEQRMKNSVA | QASHRMS | QQYHRLPLS | 0.45 / 0.73 / 0.66 / 0.97 / 1.18 / 0.52 | 0/18 |
| KLQMSMPYESRMKNSVA | HASVRES | QQYHRLPLS | 0.94 / 0.57 / 0.56 / 0.67 / 0.77 / 0.83 | 1/18 (2.81) |
| KLDGSDQYESRTKNSVA | DASTRES | QQYHRLPLS | -0.24 / -0.29 / -0.37 / -0.27 / -0.45 / -0.12 | 1/18 (2.64) |
| KVSQSVLQLSRNSNSVA | EASTREA | QQYHRLPLS | -0.21 / -0.18 / -0.60 / -0.39 / -0.31 / -0.23 | 0/18 |
| KMSQAVPYESRNLNNVA | DGSTRES | QQYHRLPLS | -0.19 / -0.15 / -0.31 / -0.48 / -0.31 / -0.19 | 0/18 |
| KSSQSDLYESRNGNSVA | NASTRMD | QQYHRLPLS | 0.39 / -0.08 / -0.09 / 0.05 / -0.03 / 0.00 | 0/18 |
| KVSQSHPYEERNANNVA | NASYRES | QQYHRLPLS | 0.23 / 0.01 / -0.19 / -0.13 / 0.17 / 0.09 | 0/18 |
| KLEQWVEYESRNKNSVA | HASTRLS | QQYHRLPLS | 1.02 / -0.07 / 0.45 / 0.43 / 0.04 / 0.52 | 0/18 |
| KFQWSNLYESRNKNSVA | NASTRES | QQYWRLPLS | 0.32 / 0.01 / -0.07 / -0.12 / -0.14 / -0.01 | 0/18 |
| KVSQSHLYESRNGNSVA | NASTREM | QQYHRLPLS | 0.39 / 0.18 / -0.20 / 0.13 / -0.26 / 0.15 | 2/18 (2.37) |

For reference, 8 entries of the list once more:

CDR-L1	CDR-L2	CDR-L3	log10 Kd (nM) by replicate	empty controls
KVEQGVDDLSRNDNSVA	WASTRES	QQYHRLPLS	1.20 / 1.20 / 0.85 / 1.19 / 1.25 / 1.06	3/18 (2.65)
KFQWSNLYESRNKNSVA	NASTRES	QQYWRLPLS	0.32 / 0.01 / -0.07 / -0.12 / -0.14 / -0.01	0/18
KLQQSWEYESRNSNSVA	QASTRMA	QQYHRLPLS	0.41 / 0.31 / 0.09 / 0.27 / 0.45 / 0.51	1/18 (2.18)
KLQMQAEMESRNKNSVA	QANTRES	QQYHRLPLS	-0.12 / -0.23 / -0.59 / -0.45 / -0.45 / -0.37	0/18
KLEQWVEYESRNKNSVA	HASTRLS	QQYHRLPLS	1.02 / -0.07 / 0.45 / 0.43 / 0.04 / 0.52	0/18
HLEQSELYESRMKNSVA	NASTRMS	QQYHRLPLS	0.24 / 0.30 / 0.12 / 0.19 / 0.25 / 0.65	2/18 (2.84)
KLQMSMPYESRMKNSVA	HASVRES	QQYHRLPLS	0.94 / 0.57 / 0.56 / 0.67 / 0.77 / 0.83	1/18 (2.81)
KLSGEMLYESRNKNSVA	HASLRES	QDYHRLPLQ	0.44 / 0.10 / 0.52 / 0.15 / 0.32 / 0.49	0/18

A sequence measured in both rounds can read differently, since the two assays cover different ranges. Empty control strains, which show no peptide, gave a signal in 4% of pairings with all light chain designs; the median was 2.64 and 95% of these signals were weaker than 1.59. No background was subtracted. Also given: how often the same scFv was detected with the empty control strains, with their mean in brackets. The authors' rule: three or more of the six replicates give a measured affinity, fewer mean a poor binder. Of ten entries with the parent sequence, four were seen in most replicates (averages 0.34 to 2.37), three in one and three in none, so single entries are noisy.

The measurements come from Li et al. 2023 (doi:10.1038/s41467-023-39022-2) through the FLAb antibody collection.